Bioassay records (PubChem)
Shown are actives, neighbours in structure and some others; about 2.8% of the full set was active somewhere.
Wnt act = Wnt/beta-catenin pathway activators, primary screen, cell-based, plate reader, single point; Wnt/beta-catenin reporter cell assay, activator; activation, % at 9.35 µM; 1.2% of 300,000 active; AID 743398, 2014; in the data active = activation above about 30%, passing the limit was not always enough; inconclusive = no clear call, values can overlap the other calls;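 also: 0% = neutral control wells and 100% = positive control wells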
MITF TRPM1 HTS = activators of MITF-driven TRPM1 promoter reporter, primary screen, cell-based, SK-MEL-5, luciferase, single point; SK-MEL-5 TRPM1-promoter luciferase, 24 h; % of positive control, neutral wells = 0; 0.75% of 300,000 active; activation, % at 12.5 µM;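 active = mean activation of at least 80% with every replicate also reaching 80%; inconclusive = mean reaches 80% but some replicate falls short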;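 also: 0% = neutral control wells and 100% = parthenolide positive control wells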
miR122 inh = miR-122 Renilla sensor signal increase in Huh7, primary screen, miR-122 inhibitor project, cell-based, single point, plate reader. Huh7 miR-122 Renilla luciferase sensor, 48 h; neutral wells = 0, positive control = 100. activation (reporter increase), % at 12.5 µM. 0.3% of 340,000 active. AID 602342, 2012;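 active = mean replicate activation score at least 90 and every replicate individually at or above 90; inconclusive = only one of the two criteria met; inactive = neither criterion met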;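 also: higher luciferase means less miR-122 activity so hits act as miR-122 inhibitors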
Yeast UUG start = alters start codon recognition fidelity in yeast | S. cerevisiae UUG-firefly luciferase reporter, luminescence/redox ratio | activity score, % at 18.7 µM | hit rate 0.13% among 350,000 | AID 602363;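 active means replicate mean at a twofold rise or more, about +100% in these data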;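 further: firefly luciferase made from a UUG start codon reports start codon fidelity; reporter light over untreated wells divided by growth signal over untreated wells; some hits fall short of that in this replicate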
PglD DTNB = C. jejuni PglD acetyltransferase inhibitors, primary screen, biochemical, DTNB colorimetric, single point; UDP-N-acetylbacillosamine N-acetyltransferase PglD (Campylobacter jejuni); purified PglD enzyme, DTNB colorimetric CoA detection; inhibition, % at 12.5 µM; 0.098% of 360,000 active; AID 602405, 2012; in the data active = inhibition above about 16%, passing the limit was not always enough; inconclusive = no clear call, values can overlap the other calls
esBAF inh = Bmi1 luciferase reporter increase in mESCs, primary screen, esBAF inhibitor project, mouse ES cells, Bmi1 luciferase knock-in, single point; 24 h; 100% = twice the neutral-well signal; reporter increase, % at 12.5 µM; 2% of 350,000 active; AID 602393, 2012; in the data active = activation above about 40%; inconclusive = no clear call, values can overlap the other calls;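 also: 0% = median of the plate's neutral control wells and 100% = double that signal; a rise in the Bmi1 reporter signal indicates esBAF inhibition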
Active calls of the source: *; u = inconclusive; x = no result; ! = repeats disagree; [ ] = remark or other dose.

1. O=C(c1ccc2c(c1)OCO2)N1CCN(c2ccccc2)CC1
2. Cc1nn(C(=O)c2cccs2)c(N)c1-c1ccccc1
3. C[C@@H](NC(=O)C[C@@H]1CC[C@H]2[C@@H](COC[C@H](O)CN2Cc2cc(F)ccc2F)O1)c1ccccc1
4. CCn1c(C)nc2cc(C(=O)N/N=C(\C)c3ccccc3O)ccc21
5. O=[N+]([O-])c1cc(Cl)ccc1-c1nc(-c2ccncc2)no1
6. Clc1ccc(-c2noc(COc3ccccc3)n2)cc1

Compound | 1 | 2 | 3 | 4 | 5 | 6
Wnt act | 4 | 47* | x | 6 | 7 | x
MITF TRPM1 HTS | 6 | 90* | x | 90* | -1 | 52
miR122 inh | -2 | 3 | 6[16.7 µM] | x | x | -10
Yeast UUG start | -1 | -9 | 8 | x | x | -18
PglD DTNB | -2 | 1 | 1 | x | x | -1
esBAF inh | 4 | 85* | 2 | x | x | 35

7. c1ccc(-c2ccccc2-c2nc(-c3ccncc3)no2)cc1
8. Clc1ccc(OCc2nc(-c3ccncc3)no2)cc1
9. Clc1ccccc1-c1nc(-c2ccncc2)no1
10. Clc1ccc(-c2nc(-c3ccncc3)no2)c(Cl)c1
11. O=[N+]([O-])c1cc(Cl)ccc1-c1nc(-c2ccccc2)no1
12. Clc1ccccc1-c1nc(-c2ccc(Br)o2)no1

Compound | 7 | 8 | 9 | 10 | 11 | 12
Wnt act | x | 19 | 49*! | 60* | 51* | 24
MITF TRPM1 HTS | 16 | 72 | 36 | x | 47 | x
miR122 inh | 4 | 0 | -12 | -4 | x | x
Yeast UUG start | -24 | -20 | -12 | -20 | x | -42
PglD DTNB | -2 | 2 | -4 | 9 | x | -5
esBAF inh | x | 62* | 13 | x | x | -20

13. O=[N+]([O-])c1ccccc1-c1nc(-c2ccc(Br)o2)no1
14. Cc1nc(-c2noc(-c3cccc(Cl)c3)n2)c(C(F)(F)F)o1
15. Cc1nc(-c2noc(-c3ccccc3Cl)n2)c(C(F)(F)F)o1
16. CCCC#Cc1ccc2c(c1)O[C@H](CN(C)C(C)=O)[C@@H](C)CN([C@@H](C)CO)S2(=O)=O
17. C[C@H](CO)N1C[C@H](C)[C@@H](CN(C)S(=O)(=O)c2cn(C)cn2)Oc2ccc(NC(=O)CCCCCC(=O)Nc3ccccc3N)cc2C1=O
18. O=C(CCN1CCCCC1)NCC[C@H]1CC[C@H](NC(=O)Cc2cccnc2)[C@H](CO)O1

Compound | 13 | 14 | 15 | 16 | 17 | 18
Wnt act | 47* | 27 | -2 | x | x | x
MITF TRPM1 HTS | 40 | x | 83* | x | x | x
miR122 inh | x | x | -6 | -4[16.7 µM] | -13[16.7 µM] | 1[16.7 µM]
Yeast UUG start | x | x | -6 | 23 | -9 | 107*
PglD DTNB | x | x | 7 | -2 | 1 | 4
esBAF inh | x | x | 47* | 1 | -5 | -1

19. O=C(Cc1ccncc1)NCC[C@@H]1CC[C@H](NC(=O)C2CCCC2)[C@@H](CO)O1
20. O=C(CCN1CCCCC1)NCC[C@H]1CC[C@H](NC(=O)Cc2cccnc2)[C@@H](CO)O1
21. O=C(Cc1ccncc1)NCC[C@H]1CC[C@H](NC(=O)C2CCCC2)[C@H](CO)O1
22. O=C(Nc1ccccc1)Nc1cccc2cccnc12
23. CCOC(=O)c1ccc(NC(=O)Nc2cccc(C)n2)cc1
24. O=C(Nc1ccccc1)Nc1ccc2ocnc2c1

Compound | 19 | 20 | 21 | 22 | 23 | 24
Wnt act | x | x | x | x | 0 | -1
MITF TRPM1 HTS | x | x | x | x | 18 | 3
miR122 inh | -7[16.7 µM] | 6[16.7 µM] | 7[16.7 µM] | 0 | 1 | -12
Yeast UUG start | -3 | -5 | 196* | x | -1 | -23
PglD DTNB | 1 | 2 | 1 | x | 1 | x
esBAF inh | 2 | -3 | -1 | 85* | 36 | 57*

25. O=C(NCc1ccccn1)C(=O)Nc1ccccc1
26. O=C(Nc1ccccc1)OCCc1ccccn1
27. CCOC(=O)c1ccc(NC(=O)Nc2ccccn2)cc1
28. O=C(O)c1ccccc1C(=O)Nc1ccccn1
29. O=C(Nc1ccccc1)Nc1ccccn1
30. CCOC(=O)c1ccc(NC(=O)c2cnccn2)cc1

Compound | 25 | 26 | 27 | 28 | 29 | 30
Wnt act | -4 | 13 | 15 | -5 | x | 28
MITF TRPM1 HTS | 49 | 51 | 102* | -10 | 74 | 119*
miR122 inh | -4 | x | -4 | -4 | 0 | -6
Yeast UUG start | -14 | -25 | x | -19 | -3 | -11
PglD DTNB | 6 | 0 | x | 1 | -3 | -5
esBAF inh | x | 80* | 59* | 5 | 45* | -11

31. CCOC(=O)c1cc(NC(=O)c2cnccn2)cc(C(=O)OCC)c1
32. O=C(Nc1ccccn1)C(=O)Nc1ccccn1
33. O=C(Nc1ccc(Cl)cc1)Nc1ccccn1
34. COc1ccc(S(=O)(=O)Nc2ccc3c(c2)C(=O)N([C@H](C)CO)C[C@@H](C)[C@@H](CN(C)C(=O)C2CCCCC2)OCCCC[C@H](C)O3)cc1
35. C[C@@H]1CN([C@H](C)CO)C(=O)c2cc(NC(=O)Cn3cnnn3)ccc2O[C@H]1CN(C)C(=O)Nc1ccc(F)cc1
36. Cn1cc(/C=C(\C#N)C(=O)Nc2ccccc2O)c2ccccc21

Compound | 31 | 32 | 33 | 34 | 35 | 36
Wnt act | x | 39* | 21 | x | x | x
MITF TRPM1 HTS | 0 | 70 | 69 | x | x | 40
miR122 inh | -13 | x | 0 | -3[16.7 µM] | 0[16.7 µM] | -8
Yeast UUG start | -23 | x | -2 | 11 | 1 | -9
PglD DTNB | 0 | x | -7 | 2 | -4 | 0
esBAF inh | -14 | x | u | 7 | 2 | 64*

37. C[C@@H]1CN([C@@H](C)CO)C(=O)c2cc(NC(=O)C3CCCCC3)ccc2O[C@@H](C)CCCCO[C@H]1CN(C)S(=O)(=O)c1ccc(F)cc1
38. NC(=O)c1ccccc1N/C=C/C(=O)c1ccco1
39. O=C(/C=C/Nc1ccc(Oc2ccccc2)cc1)c1ccco1
40. O=C(/C=C/Nc1ccccc1C(F)(F)F)c1ccco1
41. CCNC(=O)C[C@@H]1CC[C@H]2[C@@H](COc3ccc(NS(C)(=O)=O)cc3C(=O)N2C)O1
42. C[C@@H]1CN([C@H](C)CO)S(=O)(=O)c2ccc(-c3cccnc3)cc2O[C@H]1CN(C)CC1CC1

Compound | 37 | 38 | 39 | 40 | 41 | 42
Wnt act | x | -3 | 59* | 16 | x | x
MITF TRPM1 HTS | x | 46 | 75 | 12 | x | x
miR122 inh | 0[16.7 µM] | 14 | -1 | 18 | -8[16.7 µM] | -6[16.7 µM]
Yeast UUG start | -7 | x | x | -2 | 1 | 1
PglD DTNB | -4 | x | x | 0 | -1 | 3
esBAF inh | -3 | 34 | x | 93* | -1 | -2

43. CCOc1ccc(S(=O)(=O)N2CCN(C(=O)CN3C(=O)NC(C)(C)C3=O)CC2)cc1
44. COCCN1CCN(C(=O)c2ccc3nc(Cc4ccc(OC)c(OC)c4)oc3c2)CC1
45. COc1ccc(Cc2nc3ccc(C(=O)N(C)CCn4ccnc4)cc3o2)cc1OC
46. COc1ccc(Cc2nc3ccc(C(=O)N4CCOCC4)cc3o2)cc1
47. COc1ccc(Cc2nc3ccc(C(=O)N4C[C@@H](C)O[C@@H](C)C4)cc3o2)cc1OC
48. Cc1ccc(S(=O)(=O)N2CC[C@H]3[C@@H](CO)N(C)c4ccc(-c5cccc(C#N)c5)cc4[C@H]32)cc1
49. CC1=NN(c2ccccc2)C(=O)/C1=C/C=C/C=C/N(C)C
50. CN(C)/C=C/C=C1C(=O)CCCC1=O

Compound | 43 | 44 | 45 | 46 | 47 | 48 | 49 | 50
Wnt act | 47* | -3 | 20 | 20 | 9 | x | -2 | 73*
MITF TRPM1 HTS | 8 | 0 | 9 | 95* | 75 | x | -3 | -3
miR122 inh | x | x | -8 | 1 | -6 | 0[16.7 µM] | x | -3
Yeast UUG start | -3 | -5 | -9 | 9 | -14 | -15 | x | 0
PglD DTNB | 3 | x | 2 | 3 | 0 | 2 | x | -8
esBAF inh | -10 | x | 48* | 78* | 69* | 1 | x | -2

In a second layout: 4 of the compounds above.
nr	molecule	Wnt act	MITF TRPM1 HTS	miR122 inh	Yeast UUG start	PglD DTNB	esBAF inh
46	COc1ccc(Cc2nc3ccc(C(=O)N4CCOCC4)cc3o2)cc1	20	95*	1	9	3	78*
47	COc1ccc(Cc2nc3ccc(C(=O)N4C[C@@H](C)O[C@@H](C)C4)cc3o2)cc1OC	9	75	-6	-14	0	69*
48	Cc1ccc(S(=O)(=O)N2CC[C@H]3[C@@H](CO)N(C)c4ccc(-c5cccc(C#N)c5)cc4[C@H]32)cc1	x	x	0[16.7 µM]	-15	2	1
49	CC1=NN(c2ccccc2)C(=O)/C1=C/C=C/C=C/N(C)C	-2	-3	x	x	x	x
